{"source": "patent US6932990B2", "about": "“Carbohydrate absorption inhibitor and method for manufacturing the same” (Oryza Oil & Fat Chemical Co., Ltd., priority 2000, dated 2005)", "target": "T1, α-amylase derived from pancreas of pig (Sus scrofa, UniProt P00690)", "T1 construct": "the α-amylase derived from pancreas of pig; from tissue; host or cells: pig pancreas", "T1 sequence (P00690 16-511)": "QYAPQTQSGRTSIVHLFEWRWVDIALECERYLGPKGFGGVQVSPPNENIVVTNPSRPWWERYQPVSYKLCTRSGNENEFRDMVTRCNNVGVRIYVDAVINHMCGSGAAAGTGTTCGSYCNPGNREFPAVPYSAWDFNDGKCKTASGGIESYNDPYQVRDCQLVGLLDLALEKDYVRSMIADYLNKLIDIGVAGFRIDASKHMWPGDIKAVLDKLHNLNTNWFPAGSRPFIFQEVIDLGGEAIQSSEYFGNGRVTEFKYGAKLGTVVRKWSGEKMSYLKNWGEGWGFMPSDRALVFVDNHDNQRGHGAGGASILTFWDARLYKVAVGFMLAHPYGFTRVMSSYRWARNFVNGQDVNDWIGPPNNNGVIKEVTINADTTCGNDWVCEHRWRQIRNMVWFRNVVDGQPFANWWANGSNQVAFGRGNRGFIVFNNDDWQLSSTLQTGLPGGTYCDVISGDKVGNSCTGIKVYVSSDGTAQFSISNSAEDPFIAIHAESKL", "experiment": "Inhibitory activity against α-amylase derived from pancreas of pig (same method)", "format": "biochemical"}
{"substance": "Catechin", "values": [{"measurement": "IC50 against the α-amylase derived from pancreas of pig", "result": 800, "unit": "µg/mL"}]}
